Source: ChEMBL document CHEMBL1255187, “Structure-based design and synthesis of potent, ethylenediamine-based, mammalian farnesyltransferase inhibitors as anticancer agents” (J Med Chem, 2010)

Protein sequences, listed by entry. Tags and fused reporters are not part of them.
UniProt Q8K2I1, whole entry, looked up: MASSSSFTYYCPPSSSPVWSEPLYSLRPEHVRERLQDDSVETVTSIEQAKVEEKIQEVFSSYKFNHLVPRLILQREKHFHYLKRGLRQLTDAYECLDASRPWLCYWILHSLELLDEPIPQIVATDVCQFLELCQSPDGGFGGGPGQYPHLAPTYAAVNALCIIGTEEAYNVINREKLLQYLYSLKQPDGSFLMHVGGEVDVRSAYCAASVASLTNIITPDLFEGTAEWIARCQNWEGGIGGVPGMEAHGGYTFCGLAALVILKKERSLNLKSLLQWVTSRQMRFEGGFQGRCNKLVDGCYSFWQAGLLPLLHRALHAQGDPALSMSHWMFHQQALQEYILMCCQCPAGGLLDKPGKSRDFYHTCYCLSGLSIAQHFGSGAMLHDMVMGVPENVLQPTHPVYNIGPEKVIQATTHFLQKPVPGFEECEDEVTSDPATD

Assays:
[1] = molecular target: Protein farnesyltransferase (Mus musculus, UniProt Q61239+Q8K2I1); experiment: Inhibition of H-Ras farnesylation expressed in mouse NIH3T3 cells; assay type: functional, cell-based
Method in brief: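 Oncogenic H-Ras-transformed NIH3T3 cells were treated with a range of inhibitor concentrations. […] Detection used peroxidase-conjugated secondary antibodies and enhanced chemiluminescence. IC50 is the mean of three independent assays ± SD unless stated otherwise.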

[2] = organism: Homo sapiens; experiment: Selectivity ratio of IC50 for human geranylgeranyltransferase-1 to IC50 for human farnesyltransferase

Row | IC50 [1] | Compound | Selectivity ratio [2]
1 | 1500 nM | CN(C)c1cccc2c(S(=O)(=O)N(CCN(Cc3cncn3C)c3ccc(C#N)cc3)Cc3ccccc3)cccc12 | –
2 | – | Cc1ccc(CN(CCN(Cc2cncn2C)c2ccc(C#N)cc2)S(=O)(=O)c2cn(C)cn2)cc1 | 1.6
